# From US20040248802A1, “Poly-Glu, Tyr for neuroprotective therapy” (published 2004)
# Experiments:
# [1] = tested on: MK-801-injected mice; test: MK-801-induced cognitive impairment, Morris water maze (MWM)
# [2] = tested on: rats subjected to permanent MCA occlusion; test: Permanent middle cerebral artery occlusion (MCAO) model of stroke; conditions: for ischemia-induced weight loss (body weight): day 8 to day 15, vs PBS, p<0.05; for improvement in NSS vs days 1-2: 1, 1.5, 2 weeks; for improvement in NSS, comparison among doses: following 2 weeks; for neurological outcome (NSS): up to 14 days post-occlusion
# [3] = tested on: CD4+CD25+ regulatory T cells (Treg); conditions: TregYE co-cultures with 20 μg/ml added (TregYE+YE)
# [4] = tested on: RGCs; test: Chronic glaucoma model (laser-induced high IOP), RGC survival
# [5] = tested on: HD R6/2 transgenic mice; test: Huntington's disease model: HD R6/2 transgenic mice; conditions: expected
# [6] = tested on: ALS mice SOD1; test: ALS model: transgenic mutant SOD1 mice, muscle strength test; conditions: expected
# [7] = tested on: RGCs; test: Acute glaucoma model (transient IOP elevation), RGC survival
# [8] = tested on: Treg cells; test: Cytokine profile of Treg cells upon incubation with poly-Glu,Tyr
# [9] = tested on: retinal ganglion cells (RGCs); test: In vivo model of glutamate toxicity: RGC survival after intravitreal glutamate injection
# [10] = tested on: axotomized motor neurons; test: Facial nerve axotomy (acute motor neuron disorder model); conditions: facial nerve axotomy; vs other groups; expected
# [11] = tested on: spinally contused rats; test: Spinal cord contusion (NYU impactor), open field BBB locomotor score
# [12] = tested on: ALS patients; conditions: in vivo; cited from earlier work
# [13] = 20 μg/ml, conditioned media collected 24 hours after incubation
molecule,measurement,setting,value
"poly-Glu,Tyr",task acquisition in the MWM (escape latency),"[1]; 25 μg/mouse SC one week before MK-801 0.1 mg/kg i.p., acquisition phase, MK-801 impaired PBS-treated but not immunized mice",decreasing latencies in successive trials
same,swimming strategies in the MWM,"[1]; 25 μg/mouse SC one week before MK-801 (0.1 mg/kg i.p., 15 min before test), first day, vs PBS",more methodical swimming strategies than the controls
same,ischemia-induced weight loss (body weight),[2]; 150 μg 6 hours post-MCA occlusion,significantly lower than of the control group
same,improvement in NSS vs days 1-2,[2]; 150 μg per rat single SC in PBS immediately after MCA occlusion,greater improvement in the neurological score than the control group
same,"improvement in NSS, comparison among doses",[2]; 150 μg/rat immediately after MCA occlusion,greatest improvement
same,ischemia-induced weight loss (body weight),[2]; 500 μg 6 hours post-MCA occlusion,significantly lower than of the control group
same,improvement in NSS vs days 1-2,[2]; 500 μg per rat single SC in PBS immediately after MCA occlusion,greater improvement in the neurological score than the control group
same,"hippocampal neurons: ischemia-induced degeneration (necrotic cells in CA1, CA2, CA3)","[2]; 500 μg/rat immediately after MCA occlusion, 48 hours after occlusion, p=0.047 ANOVA",protected significantly
same,"improvement in NSS, comparison among doses",[2]; 500 μg/rat immediately after MCA occlusion,greatest improvement
same,ischemia-induced weight loss (body weight),[2]; 1000 μg 6 hours post-MCA occlusion,significantly lower than of the control group
same,improvement in NSS vs days 1-2,[2]; 1000 μg per rat single SC in PBS immediately after MCA occlusion,greater improvement in the neurological score than the control group
same,infarct volume,[2]; permanent MCAO in rats,no effect
same,neurological outcome (NSS),[2]; single injection 500 μg/rat SC 6 hours post MCAO,significantly improved neurological outcome
same,neurological outcome (NSS),[2]; single injection 500 μg/rat SC 24 hours post MCAO,significantly improved neurological outcome
same,neurological outcome (NSS),[2]; single injection 500 μg/rat SC immediately post MCAO,significantly improved neurological outcome
same,Teff proliferation in co-cultures,[3],significantly higher Teff proliferation
same,number of surviving RGCs,"[4]; 500 μg emulsified with CFA one hour after first laser treatment, SPD rats, vs non-immunized (PBS alone)",significant increase in the number of surviving RGCs
same,"average death rate of RGCs (mean±SD), percentage of normal eyes","[4]; eye drops 10 mg/ml in PBS, 10 drops of 50 μl, after second laser session, 3 weeks after IOP elevation, control 48.52%±1.68, p<0.0001",27.33%±4.73
same,RGC death / survival after exposure to high IOP,"[4]; immunization in CFA SC immediately after first laser session, R16 30 μg, A91 100 μg, poly-Glu,Tyr 100 μg, Lewis rats",significantly reduced RGC death
same,mortality and onset of disease,[5]; HD R6/2 mice,delay mortality and onset of disease
same,body weight loss following immunization,[5]; any of the doses vs control group,No body weight loss
same,rotarod performance,"[5]; follow-up period 8-14 weeks, vs untreated mice",improve the rotarod performance
same,dead neurons in brain,[5]; vs non-treated mice,fewer dead neurons
same,hanging time on rotating vertical rod,"[6]; 25-500 μg in PBS, vs non-immunized ALS mice",longer hanging time than the non-immunized mice
same,life span,[6]; transgenic mice,prolonged life span
same,loss of body weight,[6]; transgenic mice,slower loss of body weight
same,rate of muscle strength decline,[6]; vs non-immunized ALS mice,significantly lower rate of muscle strength decline
same,retention of motor power,[6]; vs non-immunized animals,retain motor power for a longer period of time
same,RGC cell count per mm^2 in right (injured) eye,"[7]; eye drops applied on contralateral left eye, Lewis rats, two weeks later, control 1454±221, p<0.01",1908±252 per mm^2
same,death rates of RGCs,"[7]; eye drops as in Example 8, high IOP 1 hour, assessed two weeks later, control 58.58%±7.42, p<0.01",31.5±4.73%
same,RGC loss induced by transient IOP elevation,[7]; five eye drops (1 mg each) at 5 minute intervals immediately after removal of the needle,significantly reduced RGC loss
same,RGC loss induced by transient IOP elevation,[7]; subcutaneous injection 500 μg immediately after removal of the needle,significantly reduced RGC loss
same,IFN-γ secretion by Treg cells,[8]; [13],up regulation
same,IL-2 secretion by Treg cells,[8]; [13],up regulation
same,IL-10 secretion by Treg cells,[8]; [13],down regulation
same,TGF-β secretion by Treg cells,[8]; [13],up regulation
same,proliferation of the Treg cells,"[8]; in the presence of poly-Glu,Tyr",increased proliferation
same,"RGC survival, percentage of normal eyes","[9]; 25 μg/mouse in PBS without adjuvant 7 days prior to intraocular glutamate, 7 days after exposure, non-treated 34%",68%
same,glutamate-induced RGC death,"[9]; 100 μg emulsified in CFA SC 7 days prior to glutamate (400 nmole) into vitreous, 7 days after, vs CFA-PBS (p=0.007) and non-immunized (p=0.01)",significantly attenuated
same,RGC survival vs negative control group,"[9]; 225 μg/mouse in PBS without adjuvant 7 days prior to intraocular glutamate, 7 days after exposure, p<0.001",higher than the negative control group
same,"whisking activity (amplitude, angular velocity, angular acceleration during protraction)",[10],significantly better whisking activity
same,"hind limb motor recovery, BBB locomotor score","[11]; 100 μg/rat in CFA SC immediately after injury and 7 days later, contusion at T8, vs PBS/CFA",tendency to recover better than PBS-treated rats
same,"recovery of locomotor activity, BBB locomotor score","[11]; 500 μg emulsified in CFA SC up to 1 hour after contusion at T9, vs PBS/CFA and PBS",recovered significantly better
same,"functional outcome, open-field motor score (BBB scale) in incomplete spinal cord injury (ISCI)","[11]; immunization in CFA SC within one hour after contusion at T8, R16 30 μg, A91 100 μg, poly-Glu,Tyr 100 μg, SPD rats",significantly improved functional outcome
C[C@]12N[C@H](Cc3ccccc31)c1ccccc12,performance of a spatial memory task in the MWM,[1]; MK-801 0.1 mg/kg i.p. 15 min before test,significantly impaired
Nc1nc2ccc(OC(F)(F)F)cc2s1,prolongation of the life of ALS patients,[12],approximately three
